Laboratory results taken from US11819556B2, “Stabilized compositions of radionuclides and uses thereof” (RayzeBio, Inc., priority 2021, dated 2023).

Details: 0 hour after mixing; 0.03 mCi/ml, excipient 1 mg/ml in sodium acetate-acetic acid buffer pH 5.80, 25° C.

| SMILES | Percentage of ^225Ac present in [^225Ac]Ac-DOTA-TATE [%] |
| --- | --- |
| O=C(O)CCCC[C@@H]1CCSS1 (racemic) [Lipoic Acid] | 98.61 |
| O=C(O)CC(O)(CC(=O)O)C(=O)O [Citric Acid] | 99.42 |
| N[C@H](CS)C(=O)O [D-Cysteine] | 98.61 |
| NCCCC[C@H](N)C(=O)O [L-Lysine] | 99.42 |
| CC(=O)N[C@@H](CS)C(=O)O [N-Acetyl-L-Cysteine] | 99.42 |
| O=S([O-])O.[Na+] [Sodium Bisulfite] | 98.61 |
